Usually IC50 stands for the concentration needed to halve the response being measured.

Chains of the proteins cited; added tags and fusions are not shown.
UniProt P30543, whole entry: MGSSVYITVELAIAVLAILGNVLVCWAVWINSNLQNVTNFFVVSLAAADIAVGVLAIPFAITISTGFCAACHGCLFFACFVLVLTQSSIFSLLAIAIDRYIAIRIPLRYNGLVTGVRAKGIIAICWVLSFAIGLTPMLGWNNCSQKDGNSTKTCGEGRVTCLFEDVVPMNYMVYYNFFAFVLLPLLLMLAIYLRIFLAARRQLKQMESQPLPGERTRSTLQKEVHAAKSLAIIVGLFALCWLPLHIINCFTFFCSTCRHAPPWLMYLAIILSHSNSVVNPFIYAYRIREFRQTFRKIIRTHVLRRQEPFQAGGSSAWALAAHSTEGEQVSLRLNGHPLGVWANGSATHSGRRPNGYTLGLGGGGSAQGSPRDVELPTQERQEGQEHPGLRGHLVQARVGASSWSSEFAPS

This experiment addresses T1, A2 receptor (Rattus norvegicus, UniProt P30543).
T1 construct: 5 mg original tissue weight of rat weight of rat striatal membranes; tissue Pel-Freez (Rogers, Ark.); host or cells: rat striatum (membranes)
In words: Adenosine Receptor Binding - A2 Receptor Affinity (RBA2), [3H]NECA displacement. As for the experimental part: Adenosine Receptor Binding--A2 Receptor Affinity (RBA2)
Brains from 200-500 g mixed sex Sprague-Dawley rats were purchased from Pel-Freez (Rogers, Ark.). […] Brains were thawed and then kept on ice while the striata were dissected out. […] The suspension was centrifuged at 50,000 xg for ten minutes, the supernatant discarded, the pellet resuspended in 10 vol ice-cold Tris as above, recentrifuged, resuspended at 1 g/5 ml, and stored in plastic vials at -70° C. […] When needed, tissue was thawed at room temperature, disrupted in a Polytron, and kept on ice until used. […]
Nonspecific binding was defined as binding in the presence of 100 μM N^6 -cyclopentyladenosine, and specific binding was defined as total binding minus nonspecific binding. The IC50 was calculated by weighted nonlinear least squares curve-fitting to the mass-action equation. […]
Weighting factors were calculated under the assumption that the standard deviation was proportional to the predicted value of Y. Nonspecific binding was treated as a very large (infinite) concentration of drug in the computer analysis.

In the case of `OC[C@H]1O[C@@H](n2cnc3c(NCC4c5ccccc5-c5ccccc54)ncnc32)[C@H](O)[C@@H]1O` [Example 2], the IC50 came to 6.9 nM.

Values taken from patent US4593019A, “N^6 -tricyclic adenosines” (Warner-Lambert Company, priority 1984, dated 1986).
